# Measurements published in patent US20070116781A1, “Hydrogen Cyanamide Pesticide Formulations” (priority 2005, published 2007).
# Test system: weed combination
# Assay: Herbicidal activity of citric acid alone, pre-emergence, covered pots
# Type: in vivo
# Conditions: 28 d after treatment; citric acid 200 mg/kg soil
# Method: The weeds used in these tests were the same as those used in Example 4, and observations were made of the effects on individual weeds as well as the weed population as a whole.
# A stock solution of citric acid was made in the manner described in Example 4, and all other test parameters were likewise the same as in Example 4. Weed counts were taken from the various pots at intervals of 7, 12, and 28 days after application of the citric acid, and data analyses were performed in the same manner as Example 1.
compound,measurement,value
"O=C(O)CC(O)(CC(=O)O)C(=O)O [C6H8O7, 2-hydroxy-1,2,3-propanetricarboxylic acid]",Weeds Per Pot (weed combination),22.5
